As a reminder, the IC50 is the concentration that gives 50% inhibition. A low value points to higher potency.

The chains behind the UniProt entries cited, without tags or fusion partners. Where a name states a change or a piece, a line headed by the entry shows the natural chain unless it says otherwise.
UniProt P49336: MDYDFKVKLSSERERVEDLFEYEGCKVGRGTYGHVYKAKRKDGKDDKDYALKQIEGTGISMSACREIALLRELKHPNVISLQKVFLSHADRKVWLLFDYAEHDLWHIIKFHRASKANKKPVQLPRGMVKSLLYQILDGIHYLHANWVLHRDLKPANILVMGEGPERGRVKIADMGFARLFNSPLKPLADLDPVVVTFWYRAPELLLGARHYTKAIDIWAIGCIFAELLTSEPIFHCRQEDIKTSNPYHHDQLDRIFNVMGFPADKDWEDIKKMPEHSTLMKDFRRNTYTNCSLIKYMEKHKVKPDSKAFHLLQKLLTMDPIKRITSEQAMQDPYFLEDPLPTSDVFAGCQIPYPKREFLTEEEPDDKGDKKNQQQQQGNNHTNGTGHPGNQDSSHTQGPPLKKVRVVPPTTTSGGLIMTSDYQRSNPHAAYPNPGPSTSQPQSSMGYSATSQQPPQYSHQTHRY

In the assay the target is CDK8/Cyclin C (Homo sapiens, UniProt P49336). Kind of assay: Inhibition of full length N-terminal GST/His6-tagged human CDK8 (M1 to Y463 residues)/N-terminal His6-tagged Cyc C (M1 to S283 residues) expressed in Sf9 insect cells at 1 uM using RBER-IRStide as substrate by filter binding assay.

The compound `CN1CCN(C(=O)c2ccc3cc(CCNc4ncnc5ccc(C#N)cc45)ccc3c2)CC1` [SENEXIN B] displayed an IC50 of 0.024 to 0.05 µM.

The record behind these values is ChEMBL document CHEMBL4028808, “Design and synthesis of selective CDK8/19 dual inhibitors: Discovery of 4,5-dihydrothieno[3',4':3,4]benzo[1,2-d]isothiazole derivatives” (Bioorg Med Chem, 2017).
